Measurements: ChEMBL document CHEMBL1129335, “Synthesis and structure-activity relationships of 2-substituted D-tryptophan-containing peptidic endothelin receptor antagonists: importance of the C-2 substituent of the D-tryptophan residue for endothelin A and B receptor subtype selectivity” (J Med Chem, 1996)

Amino acid sequences for entries named in this document (tags omitted).
UniProt Q29010, whole entry: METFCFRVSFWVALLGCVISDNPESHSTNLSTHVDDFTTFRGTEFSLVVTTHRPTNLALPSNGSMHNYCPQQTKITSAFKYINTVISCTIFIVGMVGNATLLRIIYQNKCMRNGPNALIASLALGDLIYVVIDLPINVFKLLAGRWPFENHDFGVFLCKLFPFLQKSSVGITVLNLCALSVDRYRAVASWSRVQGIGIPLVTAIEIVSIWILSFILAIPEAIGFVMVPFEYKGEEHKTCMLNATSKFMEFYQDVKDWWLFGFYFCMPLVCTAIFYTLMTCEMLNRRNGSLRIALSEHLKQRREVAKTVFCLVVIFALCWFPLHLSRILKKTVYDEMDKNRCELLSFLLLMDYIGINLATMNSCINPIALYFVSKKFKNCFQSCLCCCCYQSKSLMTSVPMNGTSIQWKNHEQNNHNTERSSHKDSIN

Target: Endothelin-1 receptor (Sus scrofa, UniProt Q29010)
Assay: Binding affinity towards endothelin A receptor in porcine aortic smooth muscle membranes.
In short: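 Competitive binding in porcine membranes: aortic smooth muscle for ETA and cerebellum for ETB, run by a previously reported method. Variation was generally within 10%.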

- IC50: 2000 nM
Structure (SMILES): CCCCC(NC(=O)[C@@H](Cc1c(C#N)[nH]c2ccccc12)NC(=O)C(NC(=O)N1[C@H](C)CCC[C@@H]1C)C(C)C)C(=O)O (stereo partly specified)
